Data: patent US10189828B2, “1-methylpyrazole-piperazine compounds having multimodal activity against pain” (LABORATORIOS DEL DR. ESTEVE S.A., priority 2014, dated 2019)

System: human σ1 receptor and human μ-opioid receptor
Assay: μ and σ1 dual binding: human σ1 receptor radioligand assay ([3H](+)-pentazocine, transfected HEK-293 membranes) and human μ-opioid receptor radioligand assay ([3H]-DAMGO, transfected CHO-K1 membranes)
Settings: one combined class for Ki-μ and Ki-σ1

For `Cn1nccc1N(c1ccccc1)C1CCN(Cc2ccccc2)CC1`, the “μ and σ1 dual binding” value was “++”.
